Target: recombinant human S1P1 receptor (Homo sapiens, UniProt P21453)
Assay: GTPγS assay to determine EC50 values
Format: biochemical
Conditions: agonistic activity; membrane preparations of CHO cells expressing recombinant human S1P1 receptor; 35S-GTPγS binding

Protein sequences, listed by entry. Tags and fused reporters are not part of them.
UniProt P21453, whole entry: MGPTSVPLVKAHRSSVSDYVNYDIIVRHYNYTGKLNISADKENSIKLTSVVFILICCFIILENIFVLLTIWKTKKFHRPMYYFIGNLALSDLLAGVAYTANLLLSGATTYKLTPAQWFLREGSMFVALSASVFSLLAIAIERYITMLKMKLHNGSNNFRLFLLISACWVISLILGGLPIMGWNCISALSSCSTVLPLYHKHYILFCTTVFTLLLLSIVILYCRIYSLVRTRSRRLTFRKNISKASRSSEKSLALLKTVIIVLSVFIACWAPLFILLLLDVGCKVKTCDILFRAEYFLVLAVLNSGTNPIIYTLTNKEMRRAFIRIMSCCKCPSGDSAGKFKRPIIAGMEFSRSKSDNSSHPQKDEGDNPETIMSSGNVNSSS

EC50: 2 nM
Structure (SMILES): CCc1cc(-c2nc(-c3cc(C)c(OC[C@@H](O)CO)c(C)c3)no2)cc(C)n1
